Test results reported in article PMC4128174 (European journal of medicinal chemistry, 2014).

Tests used:
Details in all cases: [5] = 100 µM
[1] = target: T1, hIDE (Homo sapiens, UniProt P14735)
T1 sequence (P14735 1-1019): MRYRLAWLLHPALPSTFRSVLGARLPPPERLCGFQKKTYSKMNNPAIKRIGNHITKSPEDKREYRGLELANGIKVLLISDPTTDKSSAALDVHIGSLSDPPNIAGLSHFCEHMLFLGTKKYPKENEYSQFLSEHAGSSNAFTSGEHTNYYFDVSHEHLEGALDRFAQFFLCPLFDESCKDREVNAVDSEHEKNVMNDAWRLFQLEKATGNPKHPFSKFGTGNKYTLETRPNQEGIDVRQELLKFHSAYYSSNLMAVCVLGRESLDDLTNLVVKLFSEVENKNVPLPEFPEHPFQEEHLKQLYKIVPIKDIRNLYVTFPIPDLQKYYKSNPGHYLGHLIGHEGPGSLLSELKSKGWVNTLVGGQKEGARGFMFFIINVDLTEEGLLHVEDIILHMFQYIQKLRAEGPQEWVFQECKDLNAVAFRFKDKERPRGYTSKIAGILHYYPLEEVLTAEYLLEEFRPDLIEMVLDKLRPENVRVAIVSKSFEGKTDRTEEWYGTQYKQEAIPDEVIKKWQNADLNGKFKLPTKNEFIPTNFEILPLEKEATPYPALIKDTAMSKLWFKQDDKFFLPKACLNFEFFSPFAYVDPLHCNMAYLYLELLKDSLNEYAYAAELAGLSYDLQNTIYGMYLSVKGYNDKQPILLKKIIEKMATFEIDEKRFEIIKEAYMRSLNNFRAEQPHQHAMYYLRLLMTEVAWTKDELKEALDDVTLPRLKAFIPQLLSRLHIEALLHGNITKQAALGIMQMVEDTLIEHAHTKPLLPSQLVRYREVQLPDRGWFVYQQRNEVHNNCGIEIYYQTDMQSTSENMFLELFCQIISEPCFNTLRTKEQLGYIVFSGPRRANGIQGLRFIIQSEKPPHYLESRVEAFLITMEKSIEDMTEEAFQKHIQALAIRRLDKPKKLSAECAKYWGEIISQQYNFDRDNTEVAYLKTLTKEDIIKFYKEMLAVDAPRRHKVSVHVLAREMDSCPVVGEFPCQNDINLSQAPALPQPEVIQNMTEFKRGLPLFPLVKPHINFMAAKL

[2] = target: T1, hIDE; remark: listed apart in the source
[3] = target: T1, hIDE; remark: listed apart in the source

effect on hydrolysis of somatostatin [1]: no effect
effect on hydrolysis of IGF-II [2]: promotes the hydrolysis
effect on hydrolysis of glucagon [3]: no effect
SMILES: CNC(=O)[C@H](Cc1c[nH]cn1)NC(=O)CN(CCCc1ccccc1)CC(=O)O [Compound 5, ((((S)-2-(1H-Imidazol-4-yl)-1-methylcarbamoyl-ethylcarbamoyl)-methyl)-(3-phenylpropyl)-amino)-acetic acid]
